# Measured values published in patent US8039668B2, “Naphthalene-based inhibitors of anti-apoptotic proteins” (Burnham Institute for Medical Research, priority 2008, dated 2011).
# Amino acid sequences for entries named in this document (tags omitted).
# UniProt Q07820, whole entry: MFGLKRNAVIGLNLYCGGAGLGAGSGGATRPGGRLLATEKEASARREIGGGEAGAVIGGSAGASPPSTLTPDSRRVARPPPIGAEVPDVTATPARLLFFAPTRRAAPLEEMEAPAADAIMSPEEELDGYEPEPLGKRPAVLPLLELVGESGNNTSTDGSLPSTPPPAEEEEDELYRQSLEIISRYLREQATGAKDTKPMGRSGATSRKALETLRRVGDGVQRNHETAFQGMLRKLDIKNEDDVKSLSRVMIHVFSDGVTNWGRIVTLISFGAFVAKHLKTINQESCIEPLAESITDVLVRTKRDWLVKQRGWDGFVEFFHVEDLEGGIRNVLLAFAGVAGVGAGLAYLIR
# Target: Mcl-1 (Homo sapiens, UniProt Q07820)
# Experiment: Competitive fluorescence polarization assay (FPA), Bim BH3 peptide
# Assay type: binding
# Settings: text b221
smiles,measurement,value
"Cc1cc2c(C(=O)NCC(C)c3ccccc3)c(O)c(O)cc2c(O)c1-c1c(C)cc2c(C(=O)NCC(C)c3ccccc3)c(O)c(O)cc2c1O (stereo not shown) [Compound 8r, 1,1′,6,6′,7,7′-hexahydroxy-3,3′-dimethyl-N^5,N^5′-bis(2-phenylpropyl)-2,2′-binaphthyl-5,5′-dicarboxamide]",IC50,280 nM
